Assay [1] has as its target T1, 5-hydroxytryptamine receptor 2C (Rattus norvegicus, UniProt P08909).
T1 sequence (P08909 whole entry): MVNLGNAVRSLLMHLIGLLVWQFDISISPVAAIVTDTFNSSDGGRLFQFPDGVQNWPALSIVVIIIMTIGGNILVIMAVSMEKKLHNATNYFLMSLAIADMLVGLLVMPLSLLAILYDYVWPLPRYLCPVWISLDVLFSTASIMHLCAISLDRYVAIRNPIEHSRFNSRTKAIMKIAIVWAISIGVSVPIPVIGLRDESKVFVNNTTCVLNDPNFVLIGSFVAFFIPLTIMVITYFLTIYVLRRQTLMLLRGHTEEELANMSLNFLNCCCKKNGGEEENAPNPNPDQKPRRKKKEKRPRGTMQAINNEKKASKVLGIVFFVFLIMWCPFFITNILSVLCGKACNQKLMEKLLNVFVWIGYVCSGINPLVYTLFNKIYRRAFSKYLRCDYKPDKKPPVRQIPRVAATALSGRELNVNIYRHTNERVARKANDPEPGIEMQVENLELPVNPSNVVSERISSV
The assay can be described thus: Binding affinity towards 5-hydroxytryptamine 1C receptor from frontal cortical regions of male Sprague-Dawley rat homogenates, using [3H]mesulergine as radioligand. Summed up: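 Male Sprague–Dawley rat frontal cortex membranes were washed in Tris/EDTA/MgCl2 pH 7.4 with a 37 °C preincubation and resuspended with ascorbate and pargyline. Each tube held 10 mg wet tissue, 1 nM [3H]mesulergine and 100 nM spiperone to block 5-HT2 sites. Nonspecific binding was set with 1 μM mianserin. Tubes were incubated 15 min at 37 °C, in triplicate, then filtered. Ki = IC50/(1+D*/KD*).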

The chains behind the UniProt entries cited, without tags or fusion partners.
UniProt P30994, whole entry, looked up: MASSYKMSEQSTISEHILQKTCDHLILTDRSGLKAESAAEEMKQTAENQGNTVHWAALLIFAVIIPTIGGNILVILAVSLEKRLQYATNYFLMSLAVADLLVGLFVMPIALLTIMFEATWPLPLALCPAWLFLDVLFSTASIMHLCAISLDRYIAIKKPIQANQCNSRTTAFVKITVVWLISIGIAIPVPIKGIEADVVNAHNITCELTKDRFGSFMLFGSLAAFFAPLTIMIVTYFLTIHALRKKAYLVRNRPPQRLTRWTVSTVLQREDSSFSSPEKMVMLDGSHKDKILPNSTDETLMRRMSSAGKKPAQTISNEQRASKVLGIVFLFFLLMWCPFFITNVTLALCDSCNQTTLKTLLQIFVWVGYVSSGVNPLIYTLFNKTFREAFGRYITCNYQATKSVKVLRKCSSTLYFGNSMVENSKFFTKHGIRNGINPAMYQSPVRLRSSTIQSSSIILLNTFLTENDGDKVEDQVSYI
UniProt P14842, whole entry, looked up: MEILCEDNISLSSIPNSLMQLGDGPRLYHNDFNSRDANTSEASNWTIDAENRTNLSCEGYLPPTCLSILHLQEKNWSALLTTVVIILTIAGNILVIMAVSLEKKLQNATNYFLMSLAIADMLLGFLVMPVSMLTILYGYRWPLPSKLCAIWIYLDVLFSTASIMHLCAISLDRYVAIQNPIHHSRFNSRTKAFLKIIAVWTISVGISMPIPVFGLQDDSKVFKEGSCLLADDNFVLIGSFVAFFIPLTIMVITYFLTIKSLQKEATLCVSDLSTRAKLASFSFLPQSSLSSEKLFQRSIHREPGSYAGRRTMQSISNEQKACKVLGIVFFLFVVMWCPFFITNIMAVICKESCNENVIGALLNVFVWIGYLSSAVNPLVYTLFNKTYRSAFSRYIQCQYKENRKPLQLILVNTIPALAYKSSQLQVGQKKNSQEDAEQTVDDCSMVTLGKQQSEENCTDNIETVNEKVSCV

Assay [2] has as its target Serotonin 2 (5-HT2) receptor (Rattus norvegicus) (UniProt P30994+P08909+P14842). The assay can be described thus: 5-HT1C selectivity was defined as the ratio between Ki(5-HT2)/Ki(5-HT1C). It counts as protein assay. Summed up: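 Ratio of Ki values from rat frontal cortex competition assays. For 5-HT2: 0.4 nM [3H]ketanserin, with 1 μM cinanserin nonspecific. For 5-HT1C: 1 nM [3H]mesulergine plus 100 nM spiperone, with 1 μM mianserin nonspecific. Both were run 15 min at 37 °C in triplicate. Ki = IC50/(1+D*/KD*).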

The structures appear in SMILES notation.

One may read the Ki as a measure of affinity in units of concentration, obtained from inhibition or displacement. A high value points to a looser hold on the target.

For `COc1cc(C[C@@H](C)N)c(OC)cc1Br`, the affinity in assay [1] corresponds to a Ki of 50 nM. In other words, the double-digit nanomolar range.

In assay [1], `CCc1cc(OC)c(CC(C)N)cc1OC` (configuration not stated) showed a Ki of 101 nM. For the same compound, the Selectivity in assay [2] was determined as 1. `COc1cc(OC)c(OC)cc1CC(C)N` (configuration not stated): the Ki in assay [1] is 2670 nM. Besides, the Selectivity in assay [2] was 0.5.

The compound `COc1cc(CC(C)N)c(OC)cc1Br` (configuration not stated) [BROLAMFETAMINE] gave a Ki in assay [1] of 70 nM. As for `COc1cc(C[C@H](C)N)c(OC)cc1Br`, the Ki in assay [1] stood at 84 nM.

For the origin of these results see ChEMBL document CHEMBL1125379, “Binding of phenylalkylamine derivatives at 5-HT1C and 5-HT2 serotonin receptors: evidence for a lack of selectivity” (J Med Chem, 1992).
